Literature values in patent publication US5866346A (priority 1997, dated 1999).

Sequences of proteins named here, by UniProt entry; tags and fusion partners are left off. A change or cut given only in a name is not applied to a line headed by its entry.
UniProt P33534: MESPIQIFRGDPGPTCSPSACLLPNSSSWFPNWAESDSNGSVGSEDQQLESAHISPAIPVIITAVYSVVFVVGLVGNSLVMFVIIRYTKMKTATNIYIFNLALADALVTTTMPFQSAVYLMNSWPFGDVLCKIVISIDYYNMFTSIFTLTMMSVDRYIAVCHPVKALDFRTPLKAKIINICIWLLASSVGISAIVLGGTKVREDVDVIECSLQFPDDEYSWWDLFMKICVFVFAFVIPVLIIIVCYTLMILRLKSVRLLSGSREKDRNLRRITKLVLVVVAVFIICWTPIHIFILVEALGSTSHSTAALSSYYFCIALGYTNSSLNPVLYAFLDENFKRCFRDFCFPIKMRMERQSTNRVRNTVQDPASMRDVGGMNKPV

Molecular target: kappa opioid receptor (KOR) (Mus musculus, UniProt P33534)
Conditions: read-out: KOR (Ki) Mouse (35); cited from earlier work

In the case of `CC[C@H](C)[C@H](NC(=O)[C@H](CCCNC(=N)N)NC(=O)[C@H](CCCNC(=N)N)NC(=O)[C@H](CC(C)C)NC(=O)[C@H](Cc1ccccc1)NC(=O)CNC(=O)CNC(=O)[C@@H](N)Cc1ccc(O)cc1)C(=O)N[C@@H](CCCNC(=N)N)C(=O)N1CCC[C@H]1C(=O)N[C@@H](CCCCN)C(=O)N[C@@H](CC(C)C)C(=O)N[C@@H](CCCCN)C(=O)N[C@@H](Cc1c[nH]c2ccccc12)C(=O)N[C@@H](CC(=O)O)C(=O)N[C@@H](CC(N)=O)C(=O)N[C@@H](CCC(N)=O)C(=O)O` [dyn A, dynorphin A], the Ki is listed as 0.4 nM.
